Numbering of substitutions follows the chain as printed. Names and notes keep the numbering of the source.

In article PMC12400800, “Significantly enhancing human antibody affinity via deep learning and computational biology-guided single-point mutations” (Briefings in Bioinformatics, 2025) one finds Kd, koff and kon data, which are given here for four molecules.

The labels stand for the following.
B1: DR5-Ab1 (DR5-Ab H:L100I) (antibody, V domains shown)
VH: EVQLQQSGAEVVKPGASVKLSCKASGFNIKDTFIHWVKQAPGQGLEWIGRIDPANTNTKYDPKFQGKATITTDTSSNTAYMELSSLRSEDTAVYYCVRGIYTYYFDYWGQGTLVTVSS
VL: EIVMTQSPATLSVSPGERATLSCRASQSISNNLHWYQQKPGQAPRLLIKFASQSITGIPARFSGSGSGTEFTLTISSLQSEDFAVYYCQQGNSWPYTFGQGTKLEIK
B2: DR5-Ab2 (DR5-Ab H:Y104G) (antibody, V domains shown)
VH: B1 VH with I100L, Y104G
VL: B1 VL
B3: DR5-Ab3 (DR5-Ab H:I29N) (antibody, V domains shown)
VH: B1 VH with I29N, I100L
VL: B1 VL
B4: DR5-Ab4 (DR5-Ab H:I29Y) (antibody, V domains shown)
VH: B1 VH with I29Y, I100L
VL: B1 VL

The target of the assay is Recombinant death receptor 5 (DR5) (Homo sapiens, UniProt O14763). Particulars: one partner purified.
Regarding B1, the Kd came to 0.681 nM, the koff is 0.000174 s⁻¹ and the kon came out at 281000 M⁻¹ s⁻¹.
For B2, the Kd worked out at 35.1 nM, the koff is 0.00169 s⁻¹ and the kon stood at 45200 M⁻¹ s⁻¹.
In the same order, the values of B3 are 5.48 nM, 0.000976 s⁻¹ and 186000 M⁻¹ s⁻¹.
Consider B4, for which the Kd was found to be 5.43 nM, the koff is 0.00106 s⁻¹ and the kon came out at 212000 M⁻¹ s⁻¹.
